In US6326465A, “Immunomodulatory polypeptides derived from the invariant chain of MHC class II” (The Johns Hopkins University, priority 1998, dated 2001):

Columns and labels:
CRL 1662 myeloma cells = assay: Antitumor activity after adoptive transfer of syngeneic GVHD effector T cells; assay type: in vivo, rat; conditions: with syngeneic GVHD effector cells; 2.5×10^4 CRL 1662 cells; cytokines for ten days
Protocol: Nylon wool nonadherent spleen cells (50×10^6) from Lou M animals with syngeneic GVHD were adoptively transferred into secondary Lou M recipients (irradiated, bone marrow reconstituted) challenged with 2.5×10^4 CRL 1662 myeloma cells. Animals were treated with gamma-interferon (50,000 U/d), IL-2 (10,000 U/d), or a combination for ten days. Survival was assessed and log tumor cell kill was estimated from dose response studies (see Table 6).

tumor cells [1] = conditions: high-dose 50,000-100,000 u/d with CsA; cited from earlier work
tumor cells [2] = assay: Cytokine modulation of CsA-induced SGVHD in the rat model; assay type: in vivo; conditions: low-dose 5-10,000 units/d alone
Source text: One approach therefore was to amplify the autoreactive effector cells by the administration of IL-2. […] This activity of the interferons in SGVHD appears to be mediated through increasing the expression of MHC class II determinants on the tumor, as the interferons have no direct activity on their own in this animal model. Moreover, resolution of the tumor was associated with the development of tumor-specific immunity as the rats were immune to rechallenge with the tumor after resolution of the SGVHD. […] This dose of IL-2, however, appears to have an additive effect when used in combination with interferon-γ, increasing the tumor cell kill by 1-2 logs compared to interferon-γ alone.

IL-2: cytokine
Estimated Log Tumor Cell Kill (CRL 1662 myeloma cells): 2.0-2.5 | exacerbation of the clinical autoimmune syndrome (tumor cells [1]): death of all the animals | immunomodulatory effects on CsA-induced SGVHD (tumor cells [2]): no immunomodulatory effects
